Test results taken from paper PMC6355318 (Bioorganic & Medicinal Chemistry Letters, 2019).

The chains behind the UniProt entries cited, without tags or fusion partners. Where a name states a change or a piece, a line headed by the entry shows the natural chain unless it says otherwise.
UniProt Q8I719: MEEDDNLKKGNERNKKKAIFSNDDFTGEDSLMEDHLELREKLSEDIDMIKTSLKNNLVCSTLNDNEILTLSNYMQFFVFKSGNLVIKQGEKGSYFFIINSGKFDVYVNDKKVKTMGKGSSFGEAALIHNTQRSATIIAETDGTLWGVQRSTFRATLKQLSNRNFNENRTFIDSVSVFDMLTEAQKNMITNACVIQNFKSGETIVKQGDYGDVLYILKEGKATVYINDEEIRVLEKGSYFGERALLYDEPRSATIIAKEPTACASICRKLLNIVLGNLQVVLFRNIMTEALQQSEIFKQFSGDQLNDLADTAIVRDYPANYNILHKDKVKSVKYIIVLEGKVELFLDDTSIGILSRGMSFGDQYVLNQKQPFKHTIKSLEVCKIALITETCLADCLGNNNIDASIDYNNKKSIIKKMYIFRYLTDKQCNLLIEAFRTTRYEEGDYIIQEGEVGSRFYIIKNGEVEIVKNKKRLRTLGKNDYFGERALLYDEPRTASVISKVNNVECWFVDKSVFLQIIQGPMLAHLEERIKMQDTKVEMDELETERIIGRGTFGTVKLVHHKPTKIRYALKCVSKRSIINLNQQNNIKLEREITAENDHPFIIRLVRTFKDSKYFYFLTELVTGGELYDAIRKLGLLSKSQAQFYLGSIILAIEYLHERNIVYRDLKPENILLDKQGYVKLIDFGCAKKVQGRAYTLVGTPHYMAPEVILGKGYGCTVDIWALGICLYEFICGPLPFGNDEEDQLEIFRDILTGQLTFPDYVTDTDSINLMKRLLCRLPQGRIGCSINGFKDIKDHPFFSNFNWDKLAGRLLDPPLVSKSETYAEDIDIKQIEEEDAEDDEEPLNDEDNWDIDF

What follows are compounds tested against PfPKG (Plasmodium falciparum, UniProt Q8I719). Details: LLE (pIC50 - mLogD).
Type: biochemical
`CN(C)Cc1ccc2c(c1)nc(-c1ccc(F)cc1)n2-c1ccnc(N)n1` [Compound 23] gave an LLE of 6.3.
With `CN(C)Cc1cc2nc(-c3ccc(F)cc3)c(-c3ccnc(N)n3)n2cn1` [Compound 19] the LLE was 5.2.
For `CN1CCC(c2ccc(Nc3nccc(-c4c(-c5ccc(F)cc5)nc5ccccn45)n3)cc2)CC1` [Compound 17], the LLE was 5.0.
Compound `Fc1ccc(-c2nc3ccccn3c2-c2ccnc(NC3CCOCC3)n2)cc1` [Compound 15] has an LLE of 5.1.
For `CN1CCC(n2cc(Nc3nccc(-c4c(-c5ccc(F)cc5)nc5ccccn45)n3)cn2)CC1` [Compound 18], the LLE was 4.3.
`CN(C)CCNc1ccc2nc(-c3ccc(F)cc3)c(-c3ccnc(N)n3)n2n1` [Compound 26] gave an LLE of 4.8.
Compound `CN(C)Cc1ccc2c(-c3ccnc(N)n3)c(-c3ccc(F)cc3)nn2c1` [Compound 29] has an LLE of 5.9.
Compound `CN(C)CCCNc1nccc(-c2c(-c3ccc(F)cc3)nc3ccccn23)n1` [Compound 14] has an LLE of 4.3.
`CN(C)Cc1ccn2c(-c3ccnc(N)n3)c(-c3ccc(F)cc3)nc2n1` [Compound 20] was tested, and the LLE was 5.0.
